Experimental data reported in paper PMC9727182, “Identification of pharmacokinetic markers for safflower injection using a combination of system pharmacology, multicomponent pharmacokinetics, and quantitative proteomics study” (Frontiers in Pharmacology, 2022).

Experiment: Stability of 6 compounds of SI in rat plasma
Conditions: spiked 40 ng/mL
Source text: The LC-MS method was validated by linearity, limits of detection (LOD), limits of quantification (LOQ), precision, accuracy, extraction recovery, matrix effect and stability of the 6 ingredients in rat plasma. Calibration curves were plotted using weighted linear regression of the peak area ratio of analyte to the IS against the corresponding nominal concentration of the analyte. LOD and LOQ were defined as the detectable concentration at which the ratio of signal to noise was more than 3 and 10, respectively. Intra- and inter-day accuracy and precision were assessed by detecting quality control (QC) samples using five replicates of rat samples at three concentration levels on one or three validation days, respectively. Accuracy and precision were expressed by relative error (RE) and relative standard deviation (RSD), respectively. The extraction recovery and matrix effect of the 6 components at above-mentioned three concentration levels were determined. Stability was assessed under the condition of placing un-treated plasma samples at room temperature for 6 h, and extracted plasma samples in auto-sampler for 10 h, as well as placing plasma samples within freeze-thaw three cycles and at −80 °C for 15 days.

## O=Cc1ccc(O)cc1 [p-HBA, p-hydroxybenzaldehyde]
  6h at room temperature RE: -10.50%
